{"source": "ChEMBL document CHEMBL4265940", "about": "“Synthesis of scutellarein derivatives with antiproliferative activity and selectivity through the intrinsic pathway” (Eur J Med Chem, 2018)", "key": {"MCF7": {"test_system": "MCF7", "assay": "Antiproliferative activity against human MCF7 cells after 72 hrs by MTT assay", "format": "functional, cell-based", "outline": "(§1)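 Log-phase tumour cells seeded and held 24 h at 37 °C in humidified 5% CO2, then exposed to test agents for 72 h. MTT (5 mg/mL stock) added for a further 4 h, formazan dissolved in DMSO with 10 min shaking at room temperature, optical density read, IC50 calculated.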"}, "A549": {"test_system": "A549", "assay": "Antiproliferative activity against human A549 cells after 72 hrs by MTT assay", "format": "functional, cell-based", "outline": "as §1"}}, "note": "pIC50: −log10 of the molar value.", "data": [{"molecule": "O=C(O)c1ccc(N(CCCl)CCCl)cc1", "values": [{"measurement": "pIC50", "setting": "MCF7", "result": "< 4.30"}, {"measurement": "pIC50", "setting": "A549", "result": "< 4.30"}]}]}
